Assay results published in PubChem BioAssay AID1159580 (chemical genetic matrix, 2015).
Values joined by “and” are separate entries in the source; they are usually repeats but may differ in a detail not shown here. Equal values may be shown once. This is a selection; strong and weak results do not stand in their true shares. Active and inactive are the calls of the source. Rule as the data show it: active = normalized growth mostly below about 0.91 (no sharp cut-off); inconclusive = no clear call, values can overlap the other calls; inactive = mostly above about 0.92.

Test: chemical genetic growth profiling, strain panel (AID 1159580);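 also: tested at 20 µM; growth read once vehicle control cultures reached saturation at 30 °C; 1 = growth at the plate median or of vehicle wells; lower values mean less growth of the strain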
Settings: S. cerevisiae deletion strains, growth OD

Measured: normalized growth

CN(CCCl)CCCl
active: locus YAL013W, strain DEP1, hits give low values 0.0634 | locus YAL021C, strain ccr4, hits give low values 0.0688 | locus YAL026C, strain drs2, hits give low values 0.0642 | locus YAL030W, strain snc1, hits give low values 0.0569 | locus YBL061C, strain skt5, hits give low values 0.0632 | locus YBR009C, strain hhf1, hits give low values 0.071 | locus YBR021W, strain FUR4, hits give low values 0.0913 | locus YBR023C, strain chs3, hits give low values 0.0648 | locus YBR171W, strain sec66, hits give low values 0.0801 | locus YBR229C, strain ROT2, hits give low values 0.0483 | locus YBR231C, strain swc5, hits give low values 0.0652 | locus YBR279W, strain paf1, hits give low values 0.0611 | locus YCL011C, strain gbp2, hits give low values 0.058 | locus YCL016C, strain dcc1, hits give low values 0.0675 | locus YCL029C, strain bik1, hits give low values 0.061 | locus YCL061C, strain MRC1, hits give low values 0.0653 | locus YCL069W, strain vba3, hits give low values 0.0611 | locus YCR088W, strain abp1, hits give low values 0.0608 | locus YDL005C, strain med2, hits give low values 0.0784 | locus YDL035C, strain GPR1, hits give low values 0.0518 | locus YDL040C, strain nat1, hits give low values 0.0595 | locus YDL074C, strain BRE1, hits give low values 0.091 | locus YDL101C, strain DUN1, hits give low values 0.0606 | locus YDL134C, strain PPH21, hits give low values 0.0489 | locus YDL185W, strain tfp1, hits give low values 0.0579 | locus YDL192W, strain arf1, hits give low values 0.0612 | locus YDR001C, strain nth1, hits give low values 0.0604 | locus YDR069C, strain doa4, hits give low values 0.0631 | locus YDR101C, strain arx1, hits give low values 0.0586 | locus YDR137W, strain rgp1, hits give low values 0.093 | locus YDR150W, strain NUM1, hits give low values 0.0602 | locus YDR159W, strain sac3, hits give low values 0.0912 | locus YDR162C, strain NBP2, hits give low values 0.0563 | locus YDR195W, strain ref2 = 0.123 | locus YDR297W, strain sur2, hits give low values 0.0575 | locus YDR318W, strain mcm21, hits give low values 0.0653 | locus YDR334W, strain swr1, hits give low values 0.0665 | locus YDR335W, strain msn5, hits give low values 0.0626 | locus YDR388W, hits give low values 0.0576 | locus YDR392W, strain spt3, hits give low values 0.1 | locus YDR502C, strain sam2, hits give low values 0.0595 | locus YEL003W, strain gim4, hits give low values 0.0563 | locus YEL037C, strain rad23, hits give low values 0.0581 | locus YEL061C, strain CIN8 (second series), hits give low values 0.0619 | locus YEL061C, strain CIN8, hits give low values 0.056 | locus YER015W, strain faa2, hits give low values 0.06 | locus YER016W, strain bim1, hits give low values 0.0627 | locus YER110C, hits give low values 0.0773 | locus YER111C, strain swi4, hits give low values 0.0745 | locus YER155C, strain BEM2 (second series), hits give low values 0.0908 | locus YER155C, strain BEM2, hits give low values 0.0652 | locus YER167W, strain BCK2, hits give low values 0.0556 | locus YFR010W, strain ubp6, hits give low values 0.0707 | locus YGL078C, strain dbp3, hits give low values 0.0601 | locus YGL086W, strain mad1, hits give low values 0.0572 | locus YGL167C, strain pmr1, hits give low values 0.0811 | locus YGL173C, strain kem1, hits give low values 0.0707 | locus YGL227W, strain vid30, hits give low values 0.0632 | locus YGL240W, strain doc1, hits give low values 0.0772 | locus YGL248W, strain PDE1, hits give low values 0.049 | locus YGL253W, strain hxk2, hits give low values 0.0541 | locus YGR078C, strain PAC10, hits give low values 0.0534 | locus YGR135W, strain pre9, hits give low values 0.0626 | locus YGR229C, strain SMI1, hits give low values 0.0628 | locus YGR252W, strain gcn5, hits give low values 0.145 | locus YHR013C, strain ard1, hits give low values 0.109 | locus YHR027C, strain rpn1, hits give low values 0.0638 | locus YHR030C, strain SLT2, hits give low values 0.0494 and 0.122 | locus YHR079C, strain IRE1 (second series), hits give low values 0.0584 | locus YHR079C, strain IRE1, hits give low values 0.119 | locus YHR094C, strain hxt1, hits give low values 0.0591 | locus YHR129C, strain ARP1, hits give low values 0.0584 | locus YHR142W, strain chs7, hits give low values 0.0769 | locus YHR200W, strain rpn10, hits give low values 0.0619 | locus YIL066C, strain RNR3, hits give low values 0.0529 | locus YIL073C, strain SPO22, hits give low values 0.118 | locus YIL125W, strain kgd1, hits give low values 0.0654 | locus YIR030C, strain dcg1, hits give low values 0.0586 | locus YJL092W, strain hpr5, hits give low values 0.0602 | locus YJL095W, strain BCK1 (second series), hits give low values 0.0586 | locus YJL095W, strain BCK1, hits give low values 0.0596 and 0.109 | locus YJL115W, strain asf1, hits give low values 0.0741 | locus YJL129C, strain trk1, hits give low values 0.0888 | locus YJL134W, strain LCB3, hits give low values 0.0492 | locus YJL154C, strain vps35, hits give low values 0.0634 | locus YJL164C, strain tpk1, hits give low values 0.0682 | locus YJL166W, strain qcr8, hits give low values 0.0604 | locus YJL168C, strain set2, hits give low values 0.0601 | locus YJL187C, strain SWE1 (second series), hits give low values 0.0521 | locus YJL187C, strain SWE1, hits give low values 0.059 | locus YJR043C, strain POL32, hits give low values 0.0861
